target: EGFR T790M L858R (Homo sapiens, UniProt P00533, L858R/T790M); assay: biochemical; details: EGFR(T790M/L858R) Ki (μM), 5 μM ATP, 30 min, room temperature; apparent Ki (Morrison) converted by Cheng-Prusoff, Km of ATP 1.3 μM

The chains behind the UniProt entries cited, without tags or fusion partners. Residues count along the entry.
UniProt P00533, 25-1210 T790M/L858R limits assumed: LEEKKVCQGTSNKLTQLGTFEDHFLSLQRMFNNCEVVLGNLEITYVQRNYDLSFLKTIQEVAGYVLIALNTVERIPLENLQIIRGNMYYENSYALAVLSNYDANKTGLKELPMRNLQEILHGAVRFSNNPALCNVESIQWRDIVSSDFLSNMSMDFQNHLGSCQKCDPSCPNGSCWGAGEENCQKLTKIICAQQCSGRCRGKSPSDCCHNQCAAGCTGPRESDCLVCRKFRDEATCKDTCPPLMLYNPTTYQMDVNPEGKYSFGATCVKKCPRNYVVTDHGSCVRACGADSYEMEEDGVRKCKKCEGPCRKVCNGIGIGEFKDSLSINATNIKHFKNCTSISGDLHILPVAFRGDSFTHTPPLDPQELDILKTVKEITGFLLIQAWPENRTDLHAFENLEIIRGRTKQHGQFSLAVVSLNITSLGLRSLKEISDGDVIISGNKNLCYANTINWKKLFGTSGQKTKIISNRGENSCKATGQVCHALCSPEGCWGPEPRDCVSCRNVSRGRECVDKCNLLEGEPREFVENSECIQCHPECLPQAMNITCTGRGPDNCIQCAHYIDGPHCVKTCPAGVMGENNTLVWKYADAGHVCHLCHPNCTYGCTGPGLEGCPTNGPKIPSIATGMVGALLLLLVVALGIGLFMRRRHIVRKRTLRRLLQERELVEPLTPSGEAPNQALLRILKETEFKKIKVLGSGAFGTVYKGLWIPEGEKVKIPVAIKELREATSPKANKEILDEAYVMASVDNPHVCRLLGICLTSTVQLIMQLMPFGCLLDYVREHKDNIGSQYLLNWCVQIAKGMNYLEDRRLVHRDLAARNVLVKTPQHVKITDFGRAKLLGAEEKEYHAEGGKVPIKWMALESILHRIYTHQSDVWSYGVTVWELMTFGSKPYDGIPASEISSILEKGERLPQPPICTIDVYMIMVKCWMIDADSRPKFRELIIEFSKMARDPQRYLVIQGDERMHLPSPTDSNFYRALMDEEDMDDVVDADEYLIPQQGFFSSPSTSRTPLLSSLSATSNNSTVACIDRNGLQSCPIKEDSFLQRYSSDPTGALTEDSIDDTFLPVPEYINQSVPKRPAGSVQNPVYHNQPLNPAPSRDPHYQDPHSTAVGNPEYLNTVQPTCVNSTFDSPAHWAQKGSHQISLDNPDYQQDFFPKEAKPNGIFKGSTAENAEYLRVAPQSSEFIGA

SMILES	Ki
CC(C)n1c(CO)nc2cnc(Nc3ccnc(-c4cnn(S(=O)(=O)C5CC5)c4)n3)cc21 [Example 272, {6-[2-(1-Cyclopropanesulfonyl-1H-pyrazol-4-yl)pyrimidin-4-ylamino]-1-isopropyl-1H-imidazo[4,5-c]pyridin-2-yl}methanol]	0.00355 µM
CO[C@H]1[C@@H]2CC[C@H]1CN(c1nccc(Nc3cc4c(cn3)nc(CO)n4C(C)C)n1)C2 [Example 273, (1-Isopropyl-6-((2-((1R,5R,8r)-8-methoxy-3-azabicyclo[3.2.1]octan-3-yl)pyrimidin-4-yl)amino)-1H-imidazo[4,5-c]pyridin-2-yl)methanol]	0.0489 µM
COC1(CN)CCN(c2nccc(Nc3cc4c(cn3)nc(CO)n4C(C)C)n2)CC1 [Example 274, {6-[2-(4-Aminomethyl-4-methoxypiperidin-1-yl)pyrimidin-4-ylamino]-1-isopropyl-1H-imidazo[4,5-c]pyridin-2-yl}methanol]	0.122 µM
Cc1nc2cnc(Nc3ccnc(C4=CCCCC4)n3)cc2n1C(C)C [Example 275, (2-Cyclohex-1-enylpyrimidin-4-yl)-(1-isopropyl-2-methyl-1H-imidazo[4,5-c]pyridin-6-yl)amine]	0.0164 µM
Cc1nc2cnc(Nc3ccnc(C#N)n3)cc2n1C(C)C [Example 276, 4-(1-Isopropyl-2-methyl-1H-imidazo[4,5-c]pyridin-6-ylamino)pyrimidine-2-carbonitrile]	0.536 µM
Cc1nc2cnc(Nc3ccnc(N4CCc5cnn(CCO)c5C4)n3)cc2n1C(C)C [Example 277, 2-{6-[4-(1-Isopropyl-2-methyl-1H-imidazo[4,5-c]pyridin-6-ylamino)pyrimidin-2-yl]-4,5,6,7-tetrahydropyrazolo[3,4-c]pyridin-1-yl}ethanol]	0.0945 µM
Cc1nc2cnc(Nc3ccnc(N4CCc5cn(CCO)nc5C4)n3)cc2n1C(C)C [Example 278, 2-{6-[4-(1-Isopropyl-2-methyl-1H-imidazo[4,5-c]pyridin-6-ylamino)pyrimidin-2-yl]-4,5,6,7-tetrahydropyrazolo[3,4-c]pyridin-2-yl}ethanol]	0.0481 µM
COCc1nc2cnc(Nc3ccnc(-c4cnn(S(=O)(=O)C5CC5)c4)n3)cc2n1C(C)C [Example 279, [2-(1-Cyclopropanesulfonyl-1H-pyrazol-4-yl)-pyrimidin-4-yl]-(1-isopropyl-2-methoxymethyl-1H-imidazo[4,5-c]pyridin-6-yl)amine]	0.00663 µM
CC[C@@H](C)n1c([C@@H](C)O)nc2cnc(Nc3ccnc(-c4cnn(S(=O)(=O)CC)c4)n3)cc21 [Example 281, (R)-1-{1-((R)-sec-Butyl)-6-[2-(1-ethanesulfonyl-1H-pyrazol-4-yl)-pyrimidin-4-ylamino]-1H-imidazo[4,5-c]pyridin-2-yl}ethanol]	0.00474 µM
CC(C)n1c(N(C)C)nc2cnc(Nc3ccnc(-c4cnn(S(=O)(=O)C5CC5)c4)n3)cc21 [Example 283, N^6-[2-(1-Cyclopropanesulfonyl-1H-pyrazol-4-yl)-pyrimidin-4-yl]-1-isopropyl-N^2,N^2-dimethyl-1H-imidazo[4,5-c]pyridine-2,6-diamine]	0.00668 µM
CC(C)n1c(OC2CNC2)nc2cnc(Nc3ccnc(-c4cnn(S(=O)(=O)C5CC5)c4)n3)cc21 [Example 284, [2-(Azetidin-3-yloxy)-1-isopropyl-1H-imidazo[4,5-c]pyridin-6-yl]-[2-(1-cyclopropanesulfonyl-1H-pyrazol-4-yl)pyrimidin-4-yl]amine]	0.00226 µM
CC(C)n1c(OC2CNC2)nc2cnc(Nc3ccnc(-c4cn[nH]c4)n3)cc21 [Example 285, [2-(Azetidin-3-yloxy)-1-isopropyl-1H-imidazo[4,5-c]pyridin-6-yl]-[2-(1H-pyrazol-4-yl)pyrimidin-4-yl]amine]	0.0742 µM
C[C@@H](n1c(CO)nc2cnc(Nc3ccnc(-c4cnn(S(=O)(=O)C5CC5)c4)n3)cc21)C(F)(F)F [Example 286, [(R)-6-[2-(1-Cyclopropanesulfonyl-1H-pyrazol-4-yl)pyrimidin-4-ylamino]-1-(2,2,2-trifluoro-1-methylethyl)-1H-imidazo[4,5-c]pyridin-2-yl]methanol]	0.00236 µM
CC(C)n1cnc2cnc(Nc3ccnc(C4CCN(S(C)(=O)=O)CC4)n3)cc21 [Example 287, (1-Isopropyl-1H-imidazo[4,5-c]pyridin-6-yl)-[2-(1-methanesulfonylpiperidin-4-yl)pyrimidin-4-yl]amine]	0.614 µM
CO[C@H]1CCN(c2nccc(Nc3cc4c(cn3)nc([C@@H](C)O)n4[C@@H](C)C(F)(F)F)n2)C[C@H]1F [Example 288, (R)-1-[6-[2-((3R,4S)-3-Fluoro-4-methoxypiperidin-1-yl)-pyrimidin-4-ylamino]-1-((S)-2,2,2-trifluoro-1-methylethyl)-1H-imidazo[4,5-c]pyridin-2-yl]ethanol]	0.00161 µM
C[C@H](n1c([C@@H](C)O)nc2cnc(Nc3ccnc(N4CC[C@H](O)[C@H](F)C4)n3)cc21)C(F)(F)F [Example 289, (3R,4S)-3-Fluoro-1-{4-[2-((R)-1-hydroxyethyl)-1-((S)-2,2,2-trifluoro-1-methylethyl)-1H-imidazo[4,5-c]pyridin-6-ylamino]pyrimidin-2-yl}-piperidin-4-ol]	0.00135 µM
CO[C@@H]1CCN(c2nccc(Nc3cc4c(cn3)nc([C@@H](C)O)n4[C@@H](C)C(F)(F)F)n2)C[C@@H]1F [Example 290, (R)-1-[6-[2-((3S,4R)-3-Fluoro-4-methoxypiperidin-1-yl)-pyrimidin-4-ylamino]-1-((S)-2,2,2-trifluoro-1-methylethyl)-1H-imidazo[4,5-c]pyridin-2-yl]ethanol]	0.00142 µM

SMILES	Ki
C[C@H](n1c([C@@H](C)O)nc2cnc(Nc3ccnc(N4CC[C@@H](O)[C@@H](F)C4)n3)cc21)C(F)(F)F [Example 291, (3S,4R)-3-Fluoro-1-{4-[2-((R)-1-hydroxyethyl)-1-((S)-2,2,2-trifluoro-1-methylethyl)-1H-imidazo[4,5-c]pyridin-6-ylamino]pyrimidin-2-yl}-piperidin-4-ol]	0.00124 µM
Cc1nc2cnc(Nc3ccnc(N4CCCC(C#N)C4)n3)cc2n1C(C)C (stereo not drawn) [Example 292, 1-[4-(1-Isopropyl-2-methyl-1H-imidazo[4,5-c]pyridin-6-ylamino)pyrimidin-2-yl]piperidine-3-carbonitrile]	0.294 µM
CNc1nc2cnc(Nc3ccnc(-c4cnn(S(=O)(=O)C5CC5)c4)n3)cc2n1C(C)C [Example 293, N^6-[2-(1-Cyclopropanesulfonyl-1H-pyrazol-4-yl)pyrimidin-4-yl]-1-isopropyl-N^2-methyl-1H-imidazo[4,5-c]pyridine-2,6-diamine]	0.00268 µM
Cc1nc2cnc(Nc3ccnc(NCCC(N)=O)n3)cc2n1C(C)C [Example 298, 3-[4-(1-Isopropyl-2-methyl-1H-imidazo[4,5-c]pyridin-6-ylamino)pyrimidin-2-ylamino]propionamide]	0.161 µM
CCC(C)(CNc1nccc(Nc2cc3c(cn2)nc(C)n3C(C)C)n1)C(=O)O (stereo not drawn) [Example 299, 2-{[4-(1-Isopropyl-2-methyl-1H-imidazo[4,5-c]pyridin-6-ylamino)pyrimidin-2-ylamino]methyl}-2-methylbutyric acid]	0.353 µM
CCC(C)(CNc1nccc(Nc2cc3c(cn2)nc(C)n3C(C)C)n1)C(N)=O (stereo not drawn) [Example 300, 2-{[4-(1-Isopropyl-2-methyl-1H-imidazo[4,5-c]pyridin-6-ylamino)pyrimidin-2-ylamino]methyl}-2-methylbutyramide]	0.0224 µM
Cc1nc2cnc(Nc3ccnc(NCC(O)C(N)=O)n3)cc2n1C(C)C (stereo not drawn) [Example 301, 2-Hydroxy-3-[4-(1-isopropyl-2-methyl-1H-imidazo[4,5-c]pyridin-6-ylamino)pyrimidin-2-ylamino]propionamide]	0.325 µM
Cc1nc2cnc(Nc3ccnc(NCC(C)(C)C(=O)O)n3)cc2n1C(C)C [Example 302, 3-[4-(1-Isopropyl-2-methyl-1H-imidazo[4,5-c]pyridin-6-ylamino)pyrimidin-2-ylamino]-2,2-dimethylpropionic acid]	0.243 µM
Cc1nc2cnc(Nc3ccnc(NCC(C)(CO)C(N)=O)n3)cc2n1C(C)C (stereo not drawn) [Example 303, 2-Hydroxymethyl-3-[4-(1-isopropyl-2-methyl-1H-imidazo[4,5-c]pyridin-6-ylamino)pyrimidin-2-ylamino]-2-methylpropionamide]	0.179 µM
COC(C)(C)C#Cc1nccc(Nc2cc3c(cn2)nc(C)n3C(C)C)n1 [Example 304, (1-Isopropyl-2-methyl-1H-imidazo[4,5-c]pyridin-6-yl)-[2-(3-methoxy-3-methylbut-1-ynyl)pyrimidin-4-yl]amine]	0.116 µM
COC(C)(C)CCc1nccc(Nc2cc3c(cn2)nc(C)n3C(C)C)n1 [Example 305, (1-Isopropyl-2-methyl-1H-imidazo[4,5-c]pyridin-6-yl)-[2-(3-methoxy-3-methylbutyl)pyrimidin-4-yl]amine]	0.983 µM
Cc1nc2cnc(Nc3ccnc(N4CCC(C)(C(N)=O)C4)n3)cc2n1C(C)C (stereo not drawn) [Example 306, 1-[4-(1-Isopropyl-2-methyl-1H-imidazo[4,5-c]pyridin-6-ylamino)pyrimidin-2-yl]-3-methylpyrrolidine-3-carboxylic acid amide]	0.0664 µM
CCC/C=C/c1nccc(Nc2cc3c(cn2)nc(C)n3C(C)C)n1 [Example 307]	0.133 µM
Cc1nc2cnc(Nc3ccnc(-c4cccnc4)n3)cc2n1C(C)C [Example 309, (1-Isopropyl-2-methyl-1H-imidazo[4,5-c]pyridin-6-yl)-(2-pyridin-3-ylpyrimidin-4-yl)amine]	0.0181 µM
Cc1nc2cnc(Nc3ccnc(/C=C/C(C)(C)C(N)=O)n3)cc2n1C(C)C [Example 310, (E)-4-[4-(1-Isopropyl-2-methyl-1H-imidazo[4,5-c]pyridin-6-ylamino)pyrimidin-2-yl]-2,2-dimethylbut-3-enoic acid amide]	0.0706 µM
Cc1nc2cnc(Nc3ccnc(-c4cncn4C)n3)cc2n1C(C)C [Example 311, (1-Isopropyl-2-methyl-1H-imidazo[4,5-c]pyridin-6-yl)-[2-(3-methyl-3H-imidazol-4-yl)pyrimidin-4-yl]amine]	0.334 µM

— patent US9890152B2 (Genentech, Inc., priority 2012, dated 2018)
